Source: ChEMBL document CHEMBL3596180, “Evaluation of histone deacetylase inhibitors (HDACi) as therapeutic leads for human African trypanosomiasis (HAT)” (Bioorg Med Chem, 2015)

Target: T1, Histone deacetylase 11 (Homo sapiens, UniProt Q96DB2)
T1 sequence (Q96DB2 whole entry): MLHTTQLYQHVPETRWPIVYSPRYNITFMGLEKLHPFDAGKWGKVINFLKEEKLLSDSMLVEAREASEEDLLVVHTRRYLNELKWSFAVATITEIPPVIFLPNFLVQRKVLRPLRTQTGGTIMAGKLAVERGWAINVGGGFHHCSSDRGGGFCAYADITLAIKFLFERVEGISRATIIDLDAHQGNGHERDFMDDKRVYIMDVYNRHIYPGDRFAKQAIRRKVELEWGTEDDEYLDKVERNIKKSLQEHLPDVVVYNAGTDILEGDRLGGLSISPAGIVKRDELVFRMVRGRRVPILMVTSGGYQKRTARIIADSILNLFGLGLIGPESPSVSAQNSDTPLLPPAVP
Assay: Inhibition of human HDAC11

Ki: 719 nM
Compound: O=C(CCCCCCC(=O)Nc1ccc([C@H]2O[C@@H](CSc3nc(-c4ccccc4)c(-c4ccccc4)o3)C[C@@H](c3ccc(CO)cc3)O2)cc1)NO [TUBACIN]
